Test system: freshly perfused S. mansoni worms
Assay: ex vivo parasite killing assay
Format: cell-based

With `N#Cc1c(-c2csc(-c3no[n+]([O-])c3C#N)c2)no[n+]1[O-]` [Compound 54, 4,4′-(thiophen-2,4-diyl)bis(3-cyano-1,2,5-oxadiazole 2-oxide)] the “worms judged to be dead” value was 100%.
